In experiment [1] the target is intrinsic renin contained in the renatured human plasma (Homo sapiens, UniProt P00797). The experiment in a line: Renin inhibition in vitro (angiotensin I production in renatured human plasma, RIA). The procedure: Commercially available lyophilized human plasma (Ortho, Bi-Level Plasma Renin Control) was renatured by dissolving in water. Angiotensinogen was allowed to react with intrinsic renin contained in the renatured plasma to generate angiotensin I (AI), which was quantitatively measured with radioimmunoassay (RIA). Thus, potency of the plasma renin was determined on the basis of the AI production. For this purpose, Renin RIA kit (RENIN' RIABEAD®) manufacture by Dinabott was used. All of the reagents necessary for the measurement of the AI production were available from the attachment of the kit, and the measurement was conducted according to the manufacturer's direction.
To the plasma (0.2 ml) were added all of the reagents, and the mixture was combined with either of sample solutions (0.002 ml) of various concentrations which had been prepared by dissolving a test compound in different amount of ethanol. Ethanol (0.002 ml) containing no test compound was used as a control solution. The amount of AI produced was measured after 60 minutes incubation. Renin inhibition potency of test compound was determined by comparing the amount of AI produced by a sample solution with that produced by a control solution.

The chains behind the UniProt entries cited, without tags or fusion partners. Residues count along the entry.
UniProt P00797, 67-406 limits assumed: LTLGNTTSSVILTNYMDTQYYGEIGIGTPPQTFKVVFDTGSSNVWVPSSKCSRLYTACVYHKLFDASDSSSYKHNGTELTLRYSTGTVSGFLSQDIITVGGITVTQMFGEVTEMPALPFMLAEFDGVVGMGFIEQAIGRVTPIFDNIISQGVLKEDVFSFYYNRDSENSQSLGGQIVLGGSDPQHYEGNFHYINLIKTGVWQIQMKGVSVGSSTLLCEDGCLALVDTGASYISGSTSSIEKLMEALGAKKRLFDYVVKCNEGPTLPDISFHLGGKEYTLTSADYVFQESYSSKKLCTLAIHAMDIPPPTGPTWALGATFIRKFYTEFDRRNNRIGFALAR
UniProt Q6DLS0, 67-406 limits assumed: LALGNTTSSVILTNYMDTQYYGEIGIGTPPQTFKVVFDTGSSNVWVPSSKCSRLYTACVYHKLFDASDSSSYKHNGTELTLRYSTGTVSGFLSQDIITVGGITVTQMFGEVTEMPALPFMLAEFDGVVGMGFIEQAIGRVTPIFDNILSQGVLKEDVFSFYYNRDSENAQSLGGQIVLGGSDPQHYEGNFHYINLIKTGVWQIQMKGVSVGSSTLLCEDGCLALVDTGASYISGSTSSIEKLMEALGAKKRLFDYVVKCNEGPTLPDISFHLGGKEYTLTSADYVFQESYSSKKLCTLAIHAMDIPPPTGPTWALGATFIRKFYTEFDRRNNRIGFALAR

In another experiment the target is Plasma renin activity (Macaca fascicularis, UniProt Q6DLS0). Description: Renin inhibition in vivo (plasma renin activity after oral administration to hyperrenin monkeys). Conditions: 15 mg/kg orally; for Renin inhibition potency, 4 h: 4 h after administration; for Renin inhibition potency, 6 h: 6 h after administration; for Renin inhibition potency, 8 h: 8 h after administration; for Renin inhibition potency, 24 h: 24 h after administration. The method, then: Crab-eating monkeys (Cynomolgus monkeys) (2.8-5.0 kg) were fed on low sodium diet (Na 7.15 mg/100 g feed) for six days, during which the monkeys intramuscularly received furosemide (2 mg/kg body weight) every other day from the second day of the experiment, in order to make the monkeys hyperrenin condition.
After seven days from the low sodium feeding, the monkeys were restrained on a monkey chair. Compounds to be tested are dissolved in 0.1 M citric acid/physiological saline or suspended in water with addition of β-cyclodextrin, and orally administered to the monkeys using a stomach probe (15 mg/kg body weight). […] For the blood collection, an injection syringe containing 30 μl of 6% aqueous EDTA·2Na solution was used. The collected blood was transferred into a test tube and centrifuged (3000 rpm, 10 minutes) at 4° C., and the resultant supernatant was used to determine the renin content. Plasma renin activity (AI(ng)/ml/h value) was measured using Radioimmunoassy kit commercially available from Dinabott Co. in the same manner as in the foregoing in vitro test. Renin inhibition potencies of the compounds tested, which were expressed as a percentage of renin activity relative to the activity before the administration, are listed in Table 12.

Setting [2] is: low sodium diet + furosemide, tested form: 2/3H2O, 2/5CH2Cl2.
The mark [3] stands for this setting: read-out: IC50 (concentration which inhibits renin activity by 50%), 60 minutes incubation.
Setting [4] is: low sodium diet + furosemide, tested form: 3/4H2O.
The mark [5] stands for this setting: low sodium diet + furosemide, tested form: 3/2H2O.
[6] abbreviates: low sodium diet + furosemide, tested form: 0.2H2O, 0.1iPr2O.
[7] abbreviates: low sodium diet + furosemide, tested form: 0.5H2O, 0.25CH2Cl2.
Where [8] appears, read: low sodium diet + furosemide, tested form: 1/2H2O.
Where [9] appears, read: furosemide not administered, tested form: H2O.

Where two headings read alike, the source gives them in different places.

Turning to `CNc1cccc(C(=O)C[C@H](O)[C@H](CC2CCCCC2)NC(=O)[C@H](Cc2cscn2)NC(=O)[C@H](Cc2ccccc2)NS(=O)(=O)N2CCOCC2)c1`, the IC50 in experiment [1] (read-out: IC50 (concentration which inhibits renin activity by 50%), 60 minutes incubation, tested form: 2/3H2O, 2/5CH2Cl2) worked out at 0.52 nM. In addition, on Plasma renin activity (setting [2]), the “Renin inhibition potency, 4 h” value stood at 97%; the “Renin inhibition potency, 6 h” value is recorded as 89%; the “Renin inhibition potency, 8 h” value is recorded as 83%; the “Renin inhibition potency, 24 h” value is listed as 53%. At Plasma renin activity (setting [2]), the “Renin inhibition potency, Max” value is given as 97% and the “Renin inhibition potency, Mean” value is given as 74%.
For `O=C(C[C@H](O)[C@H](CC1CCCCC1)NC(=O)[C@H](Cc1cscn1)NC(=O)[C@@H](CC(=O)N1CCOCC1)Cc1cccc2ccccc12)c1ccncc1`, the IC50 in experiment [1] (setting [3]) was found to be 4.98 nM. Also, at Plasma renin activity (low sodium diet + furosemide), the “Renin inhibition potency, Max” value amounted to 95%; the “Renin inhibition potency, Mean” value stood at 89%; the “Renin inhibition potency, 4 h” value was determined as 87%; the “Renin inhibition potency, 6 h” value turned out to be 76%. At Plasma renin activity (low sodium diet + furosemide), the “Renin inhibition potency, 8 h” value was 54% and the “Renin inhibition potency, 24 h” value was 18%.
For `O=C(CN1CCOCC1)N[C@@H](Cc1cccc2ccccc12)C(=O)N[C@@H](Cc1cscn1)C(=O)N[C@@H](CC1CCCCC1)[C@@H](O)CC(=O)c1ccncc1`, the IC50 in experiment [1] (setting [3]) amounted to 1.98 nM. Besides, on Plasma renin activity (low sodium diet + furosemide), the “Renin inhibition potency, Max” value is 98%; the “Renin inhibition potency, Mean” value was found to be 88%; the “Renin inhibition potency, 4 h” value came to 88%; the “Renin inhibition potency, 6 h” value worked out at 63%. For the same compound, at Plasma renin activity (low sodium diet + furosemide), the “Renin inhibition potency, 8 h” value came to 33% and the “Renin inhibition potency, 24 h” value is 0%.
`O=C(CN1CCOCC1)N[C@@H](Cc1ccccc1)C(=O)N[C@@H](Cc1cscn1)C(=O)N[C@@H](CC1CCCCC1)[C@@H](O)CC(=O)c1ccncc1`: in experiment [1] (setting [3]), the IC50 was determined as 5.9 nM. On Plasma renin activity (low sodium diet + furosemide), the “Renin inhibition potency, Max” value is recorded as 59%; the “Renin inhibition potency, Mean” value is 47%; the “Renin inhibition potency, 4 h” value was 55%; the “Renin inhibition potency, 6 h” value is recorded as 6%. Also, at Plasma renin activity (low sodium diet + furosemide), the “Renin inhibition potency, 8 h” value turned out to be 18% and the “Renin inhibition potency, 24 h” value is recorded as 34%.
With `O=C(C[C@H](O)[C@H](CC1CCCCC1)NC(=O)[C@H](Cc1cscn1)NC(=O)[C@@H](CC(=O)N1CCOCC1)Cc1cccc2ccccc12)c1cccc(OCCN2CCOCC2)c1`, in experiment [1] (read-out: IC50 (concentration which inhibits renin activity by 50%), 60 minutes incubation, tested form: 3/4H2O), the IC50 was found to be 4.51 nM. At Plasma renin activity (setting [4]), the “Renin inhibition potency, 4 h” value is on record as 35%; the “Renin inhibition potency, 6 h” value was 0%; the “Renin inhibition potency, 8 h” value is listed as 0%; the “Renin inhibition potency, 24 h” value is recorded as 0%. Besides, on Plasma renin activity (setting [4]), the “Renin inhibition potency, Max” value came to 80% and the “Renin inhibition potency, Mean” value was found to be 48%.
As for `O=C(CN1CCOCC1)N[C@@H](Cc1cccc2ccccc12)C(=O)N[C@@H](Cc1cscn1)C(=O)N[C@@H](CC1CCCCC1)[C@@H](O)CC(=O)c1cccc(OCCN2CCOCC2)c1`, the IC50 in experiment [1] (read-out: IC50 (concentration which inhibits renin activity by 50%), 60 minutes incubation, tested form: 3/2H2O) amounted to 2.34 nM. Moreover, at Plasma renin activity (setting [5]), the “Renin inhibition potency, 4 h” value is 78%; the “Renin inhibition potency, 6 h” value is reported as 72%; the “Renin inhibition potency, 8 h” value was found to be 51%; the “Renin inhibition potency, 24 h” value is reported as 12%. For the same compound, at Plasma renin activity (setting [5]), the “Renin inhibition potency, Max” value is 92% and the “Renin inhibition potency, Mean” value is given as 84%.
Consider `CN(C)S(=O)(=O)NC[C@H](O)[C@H](CC1CCCCC1)NC(=O)[C@H](Cc1cscn1)NC(=O)[C@H](Cc1ccccc1)CS(=O)(=O)C(C)(C)C`, for which, in experiment [1] (read-out: IC50 (concentration which inhibits renin activity by 50%), 60 minutes incubation, tested form: 0.2H2O, 0.1iPr2O), the IC50 is 0.8 nM. Besides, at Plasma renin activity (setting [6]), the “Renin inhibition potency, 4 h” value was 89%; the “Renin inhibition potency, 8 h” value is 80%; the “Renin inhibition potency, Max” value was 100%; the “Renin inhibition potency, Mean” value was determined as 97%.
Regarding `O=C(C[C@H](O)[C@H](CC1CCCCC1)NC(=O)[C@H](Cc1cscn1)NC(=O)[C@@H](CC(=O)N1CCOCC1)Cc1cccc2ccccc12)c1ccccc1`, the IC50 in experiment [1] (setting [3]) came out at 7.52 nM. For the same compound, at Plasma renin activity (low sodium diet + furosemide), the “Renin inhibition potency, Max” value was found to be 46%; the “Renin inhibition potency, Mean” value is 28%; the “Renin inhibition potency, 4 h” value was 12%.
For `O=C(N[C@@H](CC1CCCCC1)[C@@H](O)CNS(=O)(=O)c1cccnc1)[C@H](Cc1cscn1)NC(=O)[C@H](Cc1ccccc1)NS(=O)(=O)N1CCOCC1`, the IC50 in experiment [1] (read-out: IC50 (concentration which inhibits renin activity by 50%), 60 minutes incubation, tested form: 0.5H2O, 0.25CH2Cl2) turned out to be 0.19 nM. In addition, on Plasma renin activity (setting [7]), the “Renin inhibition potency, 4 h” value was determined as 82%; the “Renin inhibition potency, 8 h” value turned out to be 67%; the “Renin inhibition potency, Max” value is given as 83%; the “Renin inhibition potency, Mean” value was determined as 71%.
For `CC(C)(C)S(=O)(=O)C[C@@H](Cc1ccccc1)C(=O)N[C@@H](Cc1c[nH]cn1)C(=O)N[C@@H](CC1CCCCC1)[C@@H](O)CC(=O)C1CCCCC1`, the IC50 in experiment [1] (read-out: IC50 (concentration which inhibits renin activity by 50%), 60 minutes incubation, tested form: 1/2H2O) was determined as 2.73 nM. At Plasma renin activity (setting [8]), the “Renin inhibition potency, 4 h” value was determined as 55%; the “Renin inhibition potency, Max” value came out at 55%; the “Renin inhibition potency, Mean” value amounted to 37%.
Consider `CC(C)(C)S(=O)(=O)C[C@@H](Cc1ccccc1)C(=O)N[C@@H](Cc1cscn1)C(=O)N[C@@H](CC1CCCCC1)[C@@H](O)CC(=O)c1ccncc1`, for which the IC50 in experiment [1] (setting [3]) came out at 1.56 nM. Besides, on Plasma renin activity (low sodium diet + furosemide), the “Renin inhibition potency, Max” value came to 99%; the “Renin inhibition potency, Mean” value came out at 90%; the “Renin inhibition potency, 4 h” value amounted to 77%; the “Renin inhibition potency, 6 h” value is given as 56%. On Plasma renin activity (low sodium diet + furosemide), the “Renin inhibition potency, 8 h” value is on record as 42% and the “Renin inhibition potency, 24 h” value is recorded as 28%.
Turning to `CC(C)(C)S(=O)(=O)C[C@@H](Cc1ccccc1)C(=O)N[C@@H](Cc1c[nH]cn1)C(=O)N[C@@H](CC1CCCCC1)[C@@H](O)CC(=O)c1ccsc1`, in experiment [1] (read-out: IC50 (concentration which inhibits renin activity by 50%), 60 minutes incubation, tested form: H2O), the IC50 was found to be 6.17 nM. At Plasma renin activity (setting [9]), the “Renin inhibition potency, 4 h” value came to 60%; the “Renin inhibition potency, Max” value was found to be 60%; the “Renin inhibition potency, Mean” value is recorded as 52%.

The values above are taken from patent US5272268A, “Dipeptide derivatives” (Shionogi & Co., Ltd., priority 1990, dated 1993).
